Key:
CU-ACC1 [1] = assay: ExcessHSA synergy score with TAK-243; higher = less synergy (negative = synergistic); settings: combined with: TAK-243 (MLN-7243) matrix, 9-point 1:2 dilution
Experimental: (§1)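 NCATS 10x10 matrix combination screen of 107 drugs with TAK-243 (MLN-7243, NCGC00386449-04) in ACC cells. Each drug was tested at 9 points with 1:2 dilution; viability was read by CellTiter-Glo as in the single-agent screen. Synergy is scored as ExcessHSA (sum of excess over highest single agent; negative = synergy) and the Beta interaction parameter (<1 synergy).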

NCI-H295R [2] = assay: as above; settings: combined with: TAK-243 (MLN-7243) matrix, 9-point 1:2 dilution
Experimental: as §1

CU-ACC1 [3] = assay: AC50 viability; higher = less potent
Outline: (§2)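 Concentration-response curves were fitted to obtain AC50 and area under the curve, keeping inhibitory or non-responding curve classes only. Data came from CellTiter-Glo luminescence, normalised per plate to vehicle and empty-well controls, in three adrenocortical carcinoma cell lines. These were treated in 1,536-well plates with library compounds at 11 concentrations and read after 48 h.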

NCI-H295R [4] = assay: AC50 viability; higher = less potent
Outline: as §2

CU-ACC1 [5] = assay: area under concentration-response curve (viability) (AUC (a.u.)); higher = less active
Outline: as §2

CU-ACC2 = assay: as above
Outline: as §2

NCI-H295R [6] = assay: as above
Outline: as §2

## NCc1ccc(OCCCc2sc(-c3ccc4c(c3)/C(=N/Nc3nc5ccccc5s3)CCC4)nc2C(=O)O)cc1 [WEHI-539]
CU-ACC1 [1]
  ExcessHSA synergy score with TAK-243: -136
NCI-H295R [2]
  ExcessHSA synergy score with TAK-243: 86

## NCc1ccc(OCCCc2sc(-c3ccc4c(c3)/C(=N/Nc3nc5ccccc5s3)CCC4)nc2C(=O)O)cc1 (48 h)
CU-ACC1 [3]
  AC50 viability: 8.33 µM
NCI-H295R [4]
  AC50 viability: 7.42 µM
CU-ACC1 [5]
  area under concentration-response curve: 266
CU-ACC2
  area under concentration-response curve: 328
NCI-H295R [6]
  area under concentration-response curve: 341
